Conditions: male CD mice, subcutaneous 10 mg/kg

C[C@@H]1CN(Cc2ncccn2)C[C@H]1c1nc2c(cnn2C2CCOCC2)c(=O)[nH]1 (single isomer, unassigned) [Reference compound, reference compound]
Plasma concentration after 30 minutes (30 min): 1230 ng/mL
Plasma concentration after 120 minutes (120 min): 529 ng/mL

— patent publication US10513524B2, “PDE9 inhibitors with imidazo triazinone backbone and imidazo pyrazinone backbone for treatment of peripheral diseases” (H. LUNDBECK A/S, priority 2015, dated 2019)
